Here are results for two compounds from BindingDB's records for doi:10.1016/j.bmcl.2013.05.024 (Janssen Research and Development, 2014).

The nature of this assay: Antagonist activity at CCR2 receptor in human THP1 cells assessed as inhibition of MCP-1 induced chemotaxis after 3 hrs.

Turning to `COC1COCCC1N[C@@H]1C[C@H]2CN(C(=O)/C=C/c3ccccc3)C[C@@]2(C(=O)N2CCc3ncc(C(F)(F)F)cc3C2)C1` (mixture of isomers), the IC50 was found to be 33 nM.

In the case of `COC1COCCC1N[C@@H]1C[C@H]2CN(C)C[C@@]2(C(=O)N2CCc3ncc(C(F)(F)F)cc3C2)C1` (mixture of isomers), the IC50 turned out to be 320 nM.
